# Source: US10765638B2, “Particle formulation with polycation complex” (Yale University, priority 2017, dated 2020)
# Tested on: CD8-EGFR
# Assay: Western blot of CD8-EGFR phosphorylation in SKMG3-CD8-EGFR cells
# Assay type: cell-based, human
# Details: SKMG3 cells with stable expression of the CD8-EGFR
# Protocol: The CD8 cDNA was a gift from Paula Kavathas (Yale University). The CD8-EGFR was constructed according to a strategy that generated a constitutively active IGF-1R (24). The extracellular domain of CD8 was PCR amplified with a 5′ XbaI and 3′ SalI restriction site and cloned in-frame with the intracellular kinase domain of EGFR using the pDCB5-EGFR plasmid. SKMG3-CD8-EGFR cells were generated by Lipofectamine (Life Technologies) transfection of the plasmid followed by selection with 500 μg/ml G418.
substance,measurement,value
cetuximab: an antibody that recognizes the EGFR extracellular domain [reference compound],"CD8-EGFR phosphorylation (phospho-Y1068, phospho-Y845)",insensitive
